# Data reported in BindingDB's records for doi:10.1016/j.bmc.2011.01.052 (Kinki University, 2011).
# Amino acid sequences for entries named in this document (tags omitted). Residues count along the entry.
# UniProt P23739, 1014-1841 limits assumed: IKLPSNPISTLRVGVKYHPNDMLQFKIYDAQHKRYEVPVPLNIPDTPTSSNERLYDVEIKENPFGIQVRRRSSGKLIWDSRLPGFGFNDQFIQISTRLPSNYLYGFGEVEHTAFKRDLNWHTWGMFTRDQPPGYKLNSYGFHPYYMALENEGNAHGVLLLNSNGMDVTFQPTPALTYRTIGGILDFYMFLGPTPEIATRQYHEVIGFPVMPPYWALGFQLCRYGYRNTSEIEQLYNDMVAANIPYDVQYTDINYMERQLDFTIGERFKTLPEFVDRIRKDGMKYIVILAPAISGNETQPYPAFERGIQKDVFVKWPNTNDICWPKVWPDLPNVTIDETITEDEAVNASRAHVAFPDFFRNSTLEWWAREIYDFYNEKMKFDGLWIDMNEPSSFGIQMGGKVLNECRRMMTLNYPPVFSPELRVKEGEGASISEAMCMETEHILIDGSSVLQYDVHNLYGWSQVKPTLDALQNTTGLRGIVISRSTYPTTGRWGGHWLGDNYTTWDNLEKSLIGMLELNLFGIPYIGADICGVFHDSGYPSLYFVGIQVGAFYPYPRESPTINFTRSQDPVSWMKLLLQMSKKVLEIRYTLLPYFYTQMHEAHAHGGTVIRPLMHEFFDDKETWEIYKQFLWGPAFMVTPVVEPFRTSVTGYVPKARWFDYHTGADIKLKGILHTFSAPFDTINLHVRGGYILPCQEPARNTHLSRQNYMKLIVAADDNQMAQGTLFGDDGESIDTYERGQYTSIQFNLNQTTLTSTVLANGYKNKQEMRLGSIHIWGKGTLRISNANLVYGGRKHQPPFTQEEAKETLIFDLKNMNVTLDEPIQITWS
# UniProt P23739, 1-1013 limits assumed: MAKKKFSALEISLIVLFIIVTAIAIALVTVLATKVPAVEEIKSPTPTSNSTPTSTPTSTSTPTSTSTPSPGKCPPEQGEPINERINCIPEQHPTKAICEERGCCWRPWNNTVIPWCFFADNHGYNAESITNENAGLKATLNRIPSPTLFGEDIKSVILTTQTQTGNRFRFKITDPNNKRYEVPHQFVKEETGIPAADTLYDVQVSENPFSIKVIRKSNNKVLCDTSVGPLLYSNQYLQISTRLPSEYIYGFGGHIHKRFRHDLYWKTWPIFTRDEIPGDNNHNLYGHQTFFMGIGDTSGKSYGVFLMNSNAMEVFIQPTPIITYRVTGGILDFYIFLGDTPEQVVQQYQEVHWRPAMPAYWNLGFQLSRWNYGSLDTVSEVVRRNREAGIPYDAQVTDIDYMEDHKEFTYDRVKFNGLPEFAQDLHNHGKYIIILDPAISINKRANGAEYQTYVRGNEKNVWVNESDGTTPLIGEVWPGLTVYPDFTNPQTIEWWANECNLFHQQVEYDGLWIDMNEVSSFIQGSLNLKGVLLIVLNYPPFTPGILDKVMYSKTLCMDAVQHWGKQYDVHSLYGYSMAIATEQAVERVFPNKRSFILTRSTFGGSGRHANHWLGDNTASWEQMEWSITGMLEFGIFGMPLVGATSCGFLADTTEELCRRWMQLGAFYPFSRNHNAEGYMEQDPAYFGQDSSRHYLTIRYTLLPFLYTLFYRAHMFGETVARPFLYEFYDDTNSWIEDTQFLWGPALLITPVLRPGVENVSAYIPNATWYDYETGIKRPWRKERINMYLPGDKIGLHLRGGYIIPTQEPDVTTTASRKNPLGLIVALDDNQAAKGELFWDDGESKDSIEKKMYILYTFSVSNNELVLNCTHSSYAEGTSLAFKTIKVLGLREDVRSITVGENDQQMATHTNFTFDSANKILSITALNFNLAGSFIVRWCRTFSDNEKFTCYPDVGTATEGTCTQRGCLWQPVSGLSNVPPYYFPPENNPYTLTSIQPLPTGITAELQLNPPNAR
# Biological target: Sucrase-isomaltase, intestinal (Rattus norvegicus, UniProt P23739)
# Test: Inhibition of rat intestinal isomaltase
compound,measurement,value
"C[C@H]1O[C@H](O[C@H]2[C@H](O)[C@@H](O)[C@@H](O[C@H]3[C@H](O)[C@@H](O)[C@H](O)O[C@@H]3CO)O[C@@H]2CO)[C@H](O)[C@@H](O)[C@@H]1N[C@H]1C=C(CO)[C@@H](O)[C@H](O)[C@H]1O [(2R,3R,4R,5S,6R)-5-((2R,3R,4R,5S,6R)-5-((2R,3R,4S,5S,6R)-3,4-dihydroxy-6-methyl-5-((1S,4S,5S,6S)-4,5,6-trihydroxy-3-(hydroxymethyl)cyclohex-2-enylamino)-tetrahydro-2H-pyran-2-yloxy)-3,4-dihydroxy-6-(hydroxymethyl)-tetrahydro-2H-pyran-2-yloxy)-6-(hydroxymethyl)-tetrahydro-2H-pyran-2,3,4-triol]",IC50,155 µM
